This note sets out measurements from patent US11045453B1 (priority 2020, dated 2021).

The subject of the data set is human bronchial epithelial cells (HBEC).

Regarding “4-[[4-[(Aminoiminomethyl)amino]benzoyl]oxy] benzeneacetic acid 2-(dimethylamino)-2-oxoethyl ester methanesulfonate [camostat, reference compound]”, the “cell viability / cytotoxicity, LDH release” value is reported as “without significant compromise to cell viability”.
